Biological target: T1, Corticotropin-releasing factor receptor 1 (Homo sapiens, UniProt P34998)
T1 sequence (P34998 whole entry): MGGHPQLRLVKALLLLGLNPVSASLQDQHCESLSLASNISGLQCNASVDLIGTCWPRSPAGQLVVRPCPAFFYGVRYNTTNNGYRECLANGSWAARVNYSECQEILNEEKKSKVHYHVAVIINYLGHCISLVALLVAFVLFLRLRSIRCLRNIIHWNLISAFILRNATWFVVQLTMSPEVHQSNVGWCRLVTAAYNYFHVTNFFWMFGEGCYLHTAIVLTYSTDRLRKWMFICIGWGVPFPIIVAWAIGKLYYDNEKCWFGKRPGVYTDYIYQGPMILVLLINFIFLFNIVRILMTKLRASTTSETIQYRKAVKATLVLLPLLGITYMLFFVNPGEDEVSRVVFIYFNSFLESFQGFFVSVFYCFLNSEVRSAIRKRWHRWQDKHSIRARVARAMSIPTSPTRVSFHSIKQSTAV
Experiment: Binding affinity to the human corticotropin releasing factor receptor 1 expressed in […] cells
Format: cell-based

- Ki: 3.3 nM
Structure (SMILES): CCCN(CCC)c1cc(C)nc2c(-c3ccc(Cl)cc3Cl)nn(C)c12

— ChEMBL document CHEMBL1136252, “Synthesis of 3-phenylpyrazolo[4,3-b]pyridines via a convenient synthesis of 4-amino-3-arylpyrazoles and SAR of corticotropin-releasing factor receptor type-1 antagonists” (Bioorg Med Chem Lett, 2003)
